For assay [1], the system named is MCF-7 human breast cancer cells. The assay can be described thus: MCF-7 breast cancer cell growth inhibition. The note with it: read-out: MCF-7 growth inhibition IC50; Table 1; tested form: TFA salt.
In assay [2] the target is human thioredoxin reductase (Homo sapiens, UniProt Q16881). The assay can be described thus: Inhibition of purified human thioredoxin reductase (TrxR/TR). The note with it: read-out: TrxR inhibitory activity IC50; Table 1; tested form: TFA salt.

Sequences of proteins named here, by UniProt entry; tags and fusion partners are left off. Residues count along the entry.
UniProt Q16881, 151-649 limits assumed: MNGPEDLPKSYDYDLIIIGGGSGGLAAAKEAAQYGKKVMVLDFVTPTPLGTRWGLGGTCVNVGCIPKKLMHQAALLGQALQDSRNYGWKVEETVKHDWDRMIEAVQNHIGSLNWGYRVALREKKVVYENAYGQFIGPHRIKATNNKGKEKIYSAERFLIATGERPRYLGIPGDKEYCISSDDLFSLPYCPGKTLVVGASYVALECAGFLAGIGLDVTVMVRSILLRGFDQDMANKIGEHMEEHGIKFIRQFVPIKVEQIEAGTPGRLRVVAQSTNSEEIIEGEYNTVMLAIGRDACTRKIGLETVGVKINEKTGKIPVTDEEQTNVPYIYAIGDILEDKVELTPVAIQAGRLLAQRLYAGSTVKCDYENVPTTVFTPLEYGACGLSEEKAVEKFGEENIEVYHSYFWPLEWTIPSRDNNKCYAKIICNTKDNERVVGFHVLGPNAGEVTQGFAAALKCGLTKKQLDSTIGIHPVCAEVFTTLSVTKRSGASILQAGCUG

Consider one compound from patent US20120226031A1, “PALMARUMYCIN BASED INHIBITORS OF THIOREDOXIN AND METHODS OF USING SAME” (ARIZONA BOARD OF REGENTS, ACTING ON BEHALF OF THE …, priority 2005, published 2012).

As a reminder, the IC50 is the concentration that gives 50% inhibition.

`NCC(=O)Oc1ccc2c3c(cccc13)OC1(C=CC(=O)c3ccccc31)O2` (centres unmarked): the values for the IC50 in assay [1] and in assay [2] were 2.4 µM and 1.8 µM, respectively.
